# Bioassay records: PubChem, Broad Institute
# PGC1a acetyl inh: PGC1a acetylation modulation, inhibitor mode. U2OS PGC1a acetylation, AlphaScreen anti-acetyl-lysine; with virally co-expressed GCN5 acetyltransferase. 350,000 compounds, 0.17% hits. inhibition, % at 15.6 µM;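 active = every replicate shows inhibition of at least 40%; inconclusive = mean inhibition at least 40% but some replicate below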;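 note: 0% = neutral control wells and 100% = positive control wells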
# esBAF inh: blocks esBAF chromatin remodeling in mouse ES cells; reporter increase, % at 12.5 µM; AID 602393; Bmi1-luciferase knock-in reporter, 24 h; 100% = twice the neutral-well signal; 350,000 compounds, 2% hits; in the data active = activation above about 40%; inconclusive = no clear call, values can overlap the other calls;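 note: 0% = median of the plate's neutral control wells and 100% = double that signal; a rise in the Bmi1 reporter signal indicates esBAF inhibition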
# PglD DTNB: inhibitors of Campylobacter jejuni PglD acetyltransferase; inhibition, % at 12.5 µM; 360,000 compounds, 0.098% hits; purified PglD enzyme, DTNB colorimetric CoA detection; AID 602405; in the data active = inhibition above about 16%, passing the limit was not always enough; inconclusive = no clear call, values can overlap the other calls
# E-selectin induc: E-selectin induction on HUVECs | AID 686992 | activation, % at 7.58 µM | P16581 | 260,000 compounds, 0.37% hits | HUVEC E-selectin immunofluorescence imaging; normalized: neutral wells 0, TNF-alpha wells 100;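 active = mean E-selectin-positive cell signal at least 10% of the positive control, reached in at least 60% of replicates, without over 20% cell loss; inconclusive = no rule given, readout overlaps actives, possibly toxicity-flagged; inactive = the rest, including those meeting only one limit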
#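 System: HUVEC / Compound: single concentration / Signal: immunofluorescence imaging / Read-out: percent E-selectin-positive cells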
# Yeast UUG start: alters start codon recognition fidelity in yeast; AID 602363; activity score, % at 18.7 µM; 350,000 tested, 0.13% active; S. cerevisiae UUG-firefly luciferase reporter, luminescence/redox ratio;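 active means replicate mean at a twofold rise or more, about +100% in these data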;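 further: firefly luciferase made from a UUG start codon reports start codon fidelity; reporter light over untreated wells divided by growth signal over untreated wells; some hits fall short of that in this replicate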
# C2C12 statin: suppression of simvastatin myotoxicity; C2C12 myotubes + simvastatin, ATP luminescence, 48 h; scaled: DMSO 0, geranylgeraniol control 100; rescue of ATP level, % at 7.49 µM; 330,000 compounds, 0.78% hits; AID 602340;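 active = mean ATP rescue above about 67%, or every replicate alone reaching that limit, limit read from the data, passing the limit was not always enough; inconclusive = no clear call, values can overlap the other calls; inactive = mean under the limit and some replicate under it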;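 note: myotubes were challenged with 10 µM simvastatin during compound exposure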
# Active calls of the source: *; ? = inconclusive; / = not tested or not shown. The list is not random: actives were taken first. Their share in the collection is about 2.8%.
(1) CCCNC(=O)C[C@H]1CC[C@@H]2[C@H](COc3ccc(NC(=O)Cc4cccs4)cc3C(=O)N2C)O1
(2) CN(C)CC(=O)N1[C@@H]2c3ccc(-c4ccc(F)cc4)c(=O)n3C[C@@H]2[C@@H](CO)[C@@H]1C(=O)NC1CCCC1
(3) COc1ccc(/C=C/C(=O)NC2CCCCCCC2)cc1S(=O)(=O)N1CCOCC1
(4) O=C(/C=C\Nc1ccc(Br)cc1)c1cccnc1
(5) O=C(/C=C/Nc1ccc(Br)cn1)c1cccc(OC(F)F)c1
(6) Cc1cc(C)n(-c2ccc(C(=O)Nc3ccc4c(c3)OCO4)cc2)n1
(7) C=CCN(c1ccc(C(=O)Nc2ccc3c(c2)OCO3)cc1)S(C)(=O)=O
(8) Nc1ccc(C(=O)Nc2nc3ccccc3s2)cc1

assay / compound | 1 | 2 | 3 | 4 | 5 | 6 | 7 | 8
PGC1a acetyl inh | 5 | / | 4 | 9 | -4 | 38 | 93* | -7
esBAF inh | 1 | 0 | 51* | / | 68* | 68* | 2 | -17
PglD DTNB | -2 | 0 | 7 | -23 | -3 | 3 | / | -5
E-selectin induc | 0 | 0 | 0 | / | 1 | / | / | /
Yeast UUG start | 0 | / | 10 | -27 | -10 | -12 | / | -35
C2C12 statin | 6 | 5 | 2 | / | -2 | / | -10 | -6

(9) Cc1cc(C)n(-c2ccc(C(=O)Nc3nc4ccccc4s3)cc2)n1
(10) C[C@@H]1CN([C@@H](C)CO)C(=O)c2cc(NC(=O)c3ccncc3)ccc2O[C@H]1CN(C)Cc1ccc(Oc2ccccc2)cc1
(11) COc1ccc(C(=O)Nc2ccc3c(c2)OCCO3)cc1[N+](=O)[O-]
(12) COc1cc(C(=O)Nc2ccc3c(c2)OCCO3)ccc1OC(F)F
(13) COc1cc(C(=O)Nc2ccc3c(c2)OCCO3)ccc1OC(C)C
(14) O=C(Nc1ccc(F)c([N+](=O)[O-])c1)c1ccc2c(c1)OCCO2
(15) C[C@H](CO)N1C[C@H](C)[C@H](CN(C)Cc2ccc3c(c2)OCO3)Oc2ccc(NS(C)(=O)=O)cc2C1=O
(16) C[C@H](CO)N1C[C@H](C)[C@H](CN(C)C(=O)c2ccccn2)Oc2ncc(C#Cc3ccccn3)cc2C1=O

assay / compound | 9 | 10 | 11 | 12 | 13 | 14 | 15 | 16
PGC1a acetyl inh | 50 | -11 | -4 | -6 | -21 | / | 5 | 2
esBAF inh | 44* | -2 | / | 70* | ? | 50* | -6 | -5
PglD DTNB | -2 | 6 | / | 3 | 2 | -4 | 5 | 3
E-selectin induc | / | 0 | 46* | / | / | / | 3 | 0
Yeast UUG start | -11 | 3 | / | -13 | -12 | 1 | / | 18
C2C12 statin | / | -78 | / | -13 | -15 | / | -5 | 5

# Four entries from above in another layout:
nr	compound	PGC1a acetyl inh	esBAF inh	PglD DTNB	E-selectin induc	Yeast UUG start	C2C12 statin
13	COc1cc(C(=O)Nc2ccc3c(c2)OCCO3)ccc1OC(C)C	-21	?	2	/	-12	-15
14	O=C(Nc1ccc(F)c([N+](=O)[O-])c1)c1ccc2c(c1)OCCO2	/	50*	-4	/	1	/
15	C[C@H](CO)N1C[C@H](C)[C@H](CN(C)Cc2ccc3c(c2)OCO3)Oc2ccc(NS(C)(=O)=O)cc2C1=O	5	-6	5	3	/	-5
16	C[C@H](CO)N1C[C@H](C)[C@H](CN(C)C(=O)c2ccccn2)Oc2ncc(C#Cc3ccccn3)cc2C1=O	2	-5	3	0	18	5

# (next part)
(17) COC(=O)c1cccc(NC(=S)Nc2ccccc2Cl)c1
(18) COC(=O)c1ccc(CSc2ccccc2NC(=S)Nc2cccc(SC)c2)o1
(19) CC(C)NC(=O)N1CC2(C1)[C@@H](c1ccccc1)[C@H](CO)N2C(=O)C1CCCCC1
(20) COc1cccc(C(=O)Nc2ccc3c(c2)OC[C@@H](C)N(CC2CC2)C[C@H](C)[C@H](OC)CN(C)C3=O)c1
(21) C=CCNc1nc(N)c(C(=O)Nc2cc(C)on2)s1
(22) C=CCNc1nc(N)c(C(=O)c2ccc3c(c2)OCO3)s1
(23) CC(C)(C)OC(=O)N1CCC(C(=O)Nc2ccc3c(c2)CCC3)CC1
(24) CC(C)(C)OC(=O)N1CCN(C(=O)Nc2ccc3c(c2)OCCO3)CC1

assay / compound | 17 | 18 | 19 | 20 | 21 | 22 | 23 | 24
PGC1a acetyl inh | 0 | / | / | 5 | 5 | -19 | -7 | -6
esBAF inh | -2 | 54* | / | -1 | 32 | 52* | 75* | 48*
PglD DTNB | 4 | 0 | / | -1 | -7 | -10 | 2 | 6
E-selectin induc | 0 | 0 | 0 | 0 | / | / | 0 | -3
Yeast UUG start | -24 | -7 | / | -6 | -12 | -18 | -1 | -8
C2C12 statin | 4 | 2 | / | 8 | -4 | 27 | 2 | 3

(25) CC(=O)N1CCC(C(=O)Nc2ccc3c(c2)CCC3)CC1
(26) Cc1cc(C)cc(NC(=O)C2CCCN(c3ncccn3)C2)c1 (configuration not stated)
(27) O=C(Nc1ccc(F)c(Cl)c1)C1CCCN(c2cnccn2)C1 (configuration not stated)
(28) O=C(Nc1ccc2c(c1)CCC2)C1CCCN(c2ncccn2)C1 (configuration not stated)
(29) COc1ccc(CN(C)C[C@@H]2OCCCC[C@@H](C)Oc3ccc(NS(=O)(=O)c4cccs4)cc3C(=O)N([C@@H](C)CO)C[C@H]2C)cc1
(30) COc1ccc(C(=O)Nc2ccc3c(c2)C(=O)N(C)C[C@@H](OC)[C@H](C)CN[C@@H](C)CO3)cc1
(31) CS(=O)(=O)N1CC(=O)N2[C@H](C1)[C@H](c1ccc(C#CCc3ccccc3)cc1)[C@@H]2CO
(32) O=C(N[C@H]1CC[C@H](CCn2cc(-c3cccnc3)nn2)O[C@@H]1CO)c1ccccc1F

assay / compound | 25 | 26 | 27 | 28 | 29 | 30 | 31 | 32
PGC1a acetyl inh | 3 | / | 10 | -17 | -2 | -15 | -10 | -7
esBAF inh | / | -2 | -1 | 62* | -1 | 2 | / | 2
PglD DTNB | -5 | 3 | 3 | 0 | -2 | -1 | / | 1
E-selectin induc | 1 | / | 0 | / | 0 | 0 | 0 | 3
Yeast UUG start | -9 | -6 | -25 | -18 | 20 | -10 | / | -3
C2C12 statin | / | -4 | 110* | 2 | / | -4 | / | -9

(33) CO[C@@H]1CN(C)C(=O)c2cc(NC(=O)NC(C)C)ccc2OC[C@H](C)N(CCC(F)(F)F)C[C@@H]1C
(34) COc1ccc(NC(=O)Nc2cccc3c2O[C@H](CN(C)Cc2ccccc2)[C@H](C)CN([C@H](C)CO)C3=O)cc1
(35) Cc1ccc(NC(=O)C2CCCN(c3ncccn3)C2)c(C)c1 (configuration not stated)
(36) Cc1ccc(NC(=O)C2CCCN(c3nccc(C)n3)C2)c(C)c1 (configuration not stated)
(37) CC(C)(C)c1nnc(NC(=O)COc2ccc3c(c2)OCO3)s1
(38) Cc1ccc(NC(=O)COc2ccc3c(c2)OCO3)c(Cl)c1
(39) N#Cc1ccccc1NC(=O)COc1ccc2c(c1)OCO2
(40) CC(C)(C)c1nnc(NC(=O)c2ccc3c(c2)OCO3)s1

assay / compound | 33 | 34 | 35 | 36 | 37 | 38 | 39 | 40
PGC1a acetyl inh | -2 | -7 | 39 | -15 | -58 | -3 | 4 | 3
esBAF inh | -2 | -7 | 51* | 5 | 69* | 48* | 67* | /
PglD DTNB | 9 | 1 | -1 | -3 | 0 | 3 | -2 | -1
E-selectin induc | 0 | 0 | 0 | / | / | 0 | 0 | /
Yeast UUG start | / | 9 | -15 | -41 | 6 | -9 | -10 | -7
C2C12 statin | -1 | -26 | 47 | 6 | 11 | -1 | 4 | /

(41) O=c1c(-c2ccc(F)cc2)coc2c3c(ccc12)OCCO3
(42) Cc1noc(C)c1S(=O)(=O)N(C)C[C@@H]1OCCCC[C@@H](C)Oc2ccc(NC(=O)Cc3ccccc3)cc2C(=O)N([C@@H](C)CO)C[C@@H]1C
(43) Cn1c(=O)c2c(ncn2CC(=O)OCC(=O)NC2CCCc3ccccc32)n(C)c1=O (configuration not stated)
(44) COc1cccc(C2C(C#N)=C(N)Oc3cc(C)n(Cc4ccco4)c(=O)c32)c1 (configuration not stated)
(45) COc1ccc(C2C(C#N)=C(N)Oc3cc(C)n(Cc4ccco4)c(=O)c32)cc1 (configuration not stated)

assay / compound | 41 | 42 | 43 | 44 | 45
PGC1a acetyl inh | 5 | 3 | -7 | -4 | -13
esBAF inh | 52* | / | -10 | 0 | -5
PglD DTNB | 1 | / | 2 | -4 | 0
E-selectin induc | / | 0 | / | / | /
Yeast UUG start | -20 | / | -10 | -12 | -6
C2C12 statin | 6 | / | 88* | 142* | -8
